Drawing on US20040215284A1, “Treatment of neuromuscular dysfunction of the lower urinary tract with selective mGlu5 antagonists” (Recordati S.A., priority 2003, published 2004), this text covers Ki and Kd for three compounds.

Protein sequences, listed by entry. Tags and fused reporters are not part of them. Residues count along the entry.
UniProt P31424, 21-1203: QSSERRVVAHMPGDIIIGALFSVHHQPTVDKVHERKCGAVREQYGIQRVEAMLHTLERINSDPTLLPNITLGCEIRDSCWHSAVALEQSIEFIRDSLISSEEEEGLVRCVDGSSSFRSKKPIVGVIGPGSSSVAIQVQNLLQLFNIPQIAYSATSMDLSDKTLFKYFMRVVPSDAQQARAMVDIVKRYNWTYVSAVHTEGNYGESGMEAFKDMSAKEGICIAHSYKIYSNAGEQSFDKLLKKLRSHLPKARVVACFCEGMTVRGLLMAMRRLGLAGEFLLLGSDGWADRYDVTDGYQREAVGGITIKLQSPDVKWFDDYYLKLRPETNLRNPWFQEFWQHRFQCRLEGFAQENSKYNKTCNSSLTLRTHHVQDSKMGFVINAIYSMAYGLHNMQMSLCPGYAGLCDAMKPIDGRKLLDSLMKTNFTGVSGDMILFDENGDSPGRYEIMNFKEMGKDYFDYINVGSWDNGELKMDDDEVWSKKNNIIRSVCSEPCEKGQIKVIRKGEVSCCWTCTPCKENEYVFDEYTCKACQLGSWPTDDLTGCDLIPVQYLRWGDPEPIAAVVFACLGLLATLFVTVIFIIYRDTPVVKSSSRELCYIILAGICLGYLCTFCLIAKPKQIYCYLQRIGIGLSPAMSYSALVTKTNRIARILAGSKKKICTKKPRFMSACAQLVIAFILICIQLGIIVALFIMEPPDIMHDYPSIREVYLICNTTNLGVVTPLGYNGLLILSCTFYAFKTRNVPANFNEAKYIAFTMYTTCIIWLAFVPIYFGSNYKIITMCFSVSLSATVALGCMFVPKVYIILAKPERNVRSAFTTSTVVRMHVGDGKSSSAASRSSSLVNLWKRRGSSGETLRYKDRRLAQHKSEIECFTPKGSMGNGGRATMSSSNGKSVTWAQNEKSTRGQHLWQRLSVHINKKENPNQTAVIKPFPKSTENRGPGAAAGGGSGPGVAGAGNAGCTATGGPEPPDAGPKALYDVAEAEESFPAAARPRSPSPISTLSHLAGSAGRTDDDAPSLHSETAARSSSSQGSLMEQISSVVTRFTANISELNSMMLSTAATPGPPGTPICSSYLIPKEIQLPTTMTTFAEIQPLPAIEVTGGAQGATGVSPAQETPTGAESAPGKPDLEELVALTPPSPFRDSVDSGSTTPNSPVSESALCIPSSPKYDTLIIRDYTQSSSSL

For assay [1], the target named is T1, mGlu5 (Rattus norvegicus, UniProt P31424). The note with it: read-out: mGlu5 Ki; rat forebrain, [3H]MPEP.
The target in assay [2] is T1, mGlu5. The assay is described as follows: biochemical.

Like-named read-outs stand apart in the source and are kept apart here.

As for `Cc1cccc(C#Cc2ccccc2)n1` [MPEP, 2-methyl-6-(phenylethynyl)pyridine], the Ki on mGlu5 [1] worked out at 0.015 µM.

On mGlu5 [2], `Cc1nc(C#Cc2cccnc2)cs1` [MTEP, 3-(2-methylthiazol-4-yl)ethynylpyridine] returned a Ki of 0.04 µM. Turning to `Cc1cccc(C#Cc2ccccc2)n1` [[^3H]MPEP, reference compound], at mGlu5 [2], the Kd turned out to be 0.0104 µM.
